Data from PubChem BioAssay (NCI).
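How tested: cells in 96-well plates exposed to compound for 48 hours at five concentrations. At the GI50, growth is halved. The concentration for full growth arrest is given as TGI.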

Assays:
Experiment in all cases: NCI anticancer screen, dose series, 48 h
M14 melanoma = test system: M14 melanoma
COLO 205 colon = test system: COLO 205 colon
UO-31 renal = test system: UO-31 renal
T-47D breast = test system: T-47D breast
PC-3 prostate = test system: PC-3 prostate
HT29 colon = test system: HT29 colon
HOP-62 NSCLC = test system: HOP-62 NSCLC
A498 renal = test system: A498 renal
CCRF-CEM leukemia = test system: CCRF-CEM leukemia
SW-620 colon = test system: SW-620 colon
HCT-116 colon = test system: HCT-116 colon
MDA-MB-435 = test system: MDA-MB-435
HL-60(TB) leukemia = test system: HL-60(TB) leukemia
CAKI-1 renal = test system: CAKI-1 renal
NCI-H226 lung = test system: NCI-H226 lung
HCT-15 colon = test system: HCT-15 colon
OVCAR-5 ovarian = test system: OVCAR-5 ovarian
SK-MEL-28 melanoma = test system: SK-MEL-28 melanoma
HOP-92 NSCLC = test system: HOP-92 NSCLC
MDA-MB-231 breast = test system: MDA-MB-231 breast
OVCAR-8 ovarian = test system: OVCAR-8 ovarian
SF-539 CNS = test system: SF-539 CNS
786-0 renal = test system: 786-0 renal
MALME-3M melanoma = test system: MALME-3M melanoma
SK-MEL-5 melanoma = test system: SK-MEL-5 melanoma
SK-OV-3 ovarian = test system: SK-OV-3 ovarian
SF-268 CNS = test system: SF-268 CNS
U251 CNS = test system: U251 CNS
NCI/ADR-RES ovarian = test system: NCI/ADR-RES ovarian
A549 NSCLC = test system: A549 NSCLC
TK-10 renal = test system: TK-10 renal
KM12 colon = test system: KM12 colon
OVCAR-4 ovarian = test system: OVCAR-4 ovarian
HCC-2998 colon = test system: HCC-2998 colon
DU-145 prostate = test system: DU-145 prostate
HS 578T breast = test system: HS 578T breast
BT-549 breast = test system: BT-549 breast
NCI-H23 lung = test system: NCI-H23 lung
SF-295 CNS = test system: SF-295 CNS
RXF 393 renal = test system: RXF 393 renal
RPMI-8226 leukemia = test system: RPMI-8226 leukemia
UACC-62 melanoma = test system: UACC-62 melanoma
NCI-H460 lung = test system: NCI-H460 lung
EKVX NSCLC = test system: EKVX NSCLC
K-562 leukemia = test system: K-562 leukemia
OVCAR-3 ovarian = test system: OVCAR-3 ovarian
SNB-75 CNS = test system: SNB-75 CNS
MCF7 breast = test system: MCF7 breast
ACHN renal = test system: ACHN renal
NCI-H322M lung = test system: NCI-H322M lung
MOLT-4 leukemia = test system: MOLT-4 leukemia
UACC-257 melanoma = test system: UACC-257 melanoma

With `CC(C)[As](SCC(O)CO)C(C)C` (stereo not drawn) the GI50 (M14 melanoma) was 1230 nM, the TGI (M14 melanoma) was 4510 nM and the GI50 (COLO 205 colon) was 1060 nM. It also gave a TGI (COLO 205 colon) of 2590 nM, a GI50 (UO-31 renal) of 1670 nM and a TGI (UO-31 renal) of 15400 nM. The GI50 (T-47D breast) was 529 nM, the TGI (T-47D breast) was 5840 nM and the GI50 (PC-3 prostate) was 778 nM. For the same compound, the TGI (PC-3 prostate) was 2600 nM, the GI50 (HT29 colon) was 523 nM and the TGI (HT29 colon) was > 100000 nM. The GI50 (HOP-62 NSCLC) was 1680 nM, the TGI (HOP-62 NSCLC) was 3170 nM and the GI50 (A498 renal) was 1310 nM. For the same compound, the TGI (A498 renal) was 3120 nM, the GI50 (CCRF-CEM leukemia) was 231 nM and the TGI (CCRF-CEM leukemia) was 1000 nM. The GI50 (SW-620 colon) was 302 nM, the TGI (SW-620 colon) was 2530 nM and the GI50 (HCT-116 colon) was 675 nM. It also gave a TGI (HCT-116 colon) of 3550 nM, a GI50 (MDA-MB-435) of 1190 nM and a TGI (MDA-MB-435) of 3070 nM. It also gave a GI50 (HL-60(TB) leukemia) of 245 nM, a TGI (HL-60(TB) leukemia) of 10300 nM and a GI50 (CAKI-1 renal) of 658 nM. For the same compound, the TGI (CAKI-1 renal) was 2350 nM, the GI50 (NCI-H226 lung) was 3260 nM and the TGI (NCI-H226 lung) was 9520 nM. It also gave a TGI (HCT-15 colon) of 227 nM, a GI50 (OVCAR-5 ovarian) of 1510 nM and a TGI (OVCAR-5 ovarian) of 3360 nM. The GI50 (SK-MEL-28 melanoma) was 403 nM, the TGI (SK-MEL-28 melanoma) was 2330 nM and the GI50 (HOP-92 NSCLC) was 129 nM. For the same compound, the TGI (HOP-92 NSCLC) was 659 nM, the GI50 (MDA-MB-231 breast) was 175 nM and the TGI (MDA-MB-231 breast) was 844 nM. For the same compound, the GI50 (OVCAR-8 ovarian) was 2310 nM, the TGI (OVCAR-8 ovarian) was > 100000 nM and the GI50 (SF-539 CNS) was 1900 nM. It also gave a TGI (SF-539 CNS) of 3780 nM, a GI50 (786-0 renal) of 532 nM and a TGI (786-0 renal) of 1990 nM. It also gave a GI50 (MALME-3M melanoma) of 125 nM, a TGI (MALME-3M melanoma) of 912 nM and a GI50 (SK-MEL-5 melanoma) of 204 nM. The TGI (SK-MEL-5 melanoma) was 507 nM, the GI50 (SK-OV-3 ovarian) was 1370 nM and the TGI (SK-OV-3 ovarian) was 3490 nM. For the same compound, the GI50 (SF-268 CNS) was 1290 nM, the TGI (SF-268 CNS) was 2870 nM and the GI50 (U251 CNS) was 1710 nM. For the same compound, the TGI (U251 CNS) was 6940 nM, the GI50 (NCI/ADR-RES ovarian) was 1710 nM and the TGI (NCI/ADR-RES ovarian) was 5120 nM. It also gave a GI50 (A549 NSCLC) of 3360 nM, a TGI (A549 NSCLC) of 10600 nM and a GI50 (TK-10 renal) of 528 nM. For the same compound, the TGI (TK-10 renal) was 1920 nM, the GI50 (KM12 colon) was 1190 nM and the TGI (KM12 colon) was 2440 nM. For the same compound, the GI50 (OVCAR-4 ovarian) was 2360 nM, the TGI (OVCAR-4 ovarian) was 5700 nM and the GI50 (HCC-2998 colon) was 1410 nM. The TGI (HCC-2998 colon) was 2890 nM, the GI50 (DU-145 prostate) was 1240 nM and the TGI (DU-145 prostate) was 5030 nM. The GI50 (HS 578T breast) was 1290 nM, the TGI (HS 578T breast) was 15800 nM and the GI50 (BT-549 breast) was 1290 nM. For the same compound, the TGI (BT-549 breast) was 2780 nM, the GI50 (NCI-H23 lung) was 572 nM and the TGI (NCI-H23 lung) was 1900 nM. It also gave a GI50 (SF-295 CNS) of 2300 nM, a TGI (SF-295 CNS) of 9510 nM and a GI50 (RXF 393 renal) of 380 nM. It also gave a TGI (RXF 393 renal) of 1580 nM, a GI50 (RPMI-8226 leukemia) of 176 nM and a TGI (RPMI-8226 leukemia) of 597 nM. The GI50 (UACC-62 melanoma) was 2400 nM, the TGI (UACC-62 melanoma) was > 100000 nM and the GI50 (NCI-H460 lung) was 3180 nM. For the same compound, the TGI (NCI-H460 lung) was 17100 nM, the GI50 (EKVX NSCLC) was 1240 nM and the TGI (EKVX NSCLC) was 6150 nM. For the same compound, the GI50 (K-562 leukemia) was 104 nM, the TGI (K-562 leukemia) was 5640 nM and the GI50 (OVCAR-3 ovarian) was 208 nM. It also gave a TGI (OVCAR-3 ovarian) of 1010 nM, a GI50 (SNB-75 CNS) of 1040 nM and a TGI (SNB-75 CNS) of 7260 nM. The GI50 (MCF7 breast) was 572 nM, the TGI (MCF7 breast) was 15300 nM and the GI50 (ACHN renal) was 11500 nM. The TGI (ACHN renal) was 16900 nM, the GI50 (NCI-H322M lung) was 2190 nM and the TGI (NCI-H322M lung) was 4990 nM. It also gave a GI50 (MOLT-4 leukemia) of 452 nM, a TGI (MOLT-4 leukemia) of 17300 nM and a GI50 (UACC-257 melanoma) of 308 nM. It also gave a TGI (UACC-257 melanoma) of 1300 nM.
